Assay results: ChEMBL document CHEMBL2029249, “N-Methyl-3-(tetrahydro-2H-pyran-4-yl)-2,3,4,9-tetrahydro-1H-carbazole-6-carboxamides as a novel class of cannabinoid receptors agonists with low CNS penetration” (Bioorg Med Chem Lett, 2012)

Protein sequences, listed by entry. Tags and fused reporters are not part of them.
UniProt P21554, whole entry: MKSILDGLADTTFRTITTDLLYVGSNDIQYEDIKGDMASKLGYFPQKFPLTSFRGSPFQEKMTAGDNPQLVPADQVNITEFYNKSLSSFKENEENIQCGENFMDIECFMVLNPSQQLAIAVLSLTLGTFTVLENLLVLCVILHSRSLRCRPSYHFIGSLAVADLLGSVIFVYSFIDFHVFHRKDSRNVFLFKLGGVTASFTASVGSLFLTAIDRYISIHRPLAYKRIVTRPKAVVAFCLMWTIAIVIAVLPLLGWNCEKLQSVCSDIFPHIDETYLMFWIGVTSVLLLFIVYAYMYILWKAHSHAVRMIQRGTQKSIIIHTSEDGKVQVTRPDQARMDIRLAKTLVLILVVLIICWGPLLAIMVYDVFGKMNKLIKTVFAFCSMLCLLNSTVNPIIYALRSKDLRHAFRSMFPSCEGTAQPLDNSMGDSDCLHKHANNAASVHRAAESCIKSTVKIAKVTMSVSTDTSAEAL

Target: Cannabinoid receptor 1 (Homo sapiens, UniProt P21554)
Assay: Agonist activity at human CB1 receptor expressed in HEK293 cells assessed as [35S]GTPgamma binding
Type: functional, cell-based

**Q.** `CCCCCOc1ccc(C(=O)c2cccc3ccccc23)c2ccccc12` was tested. Which EC50 did it give?
**A.** 73 nM
